Earlier results on 1 compound are cited in patent publication US6423829B1 (St. Jude Children's Research Hosital, priority 1997, dated 2002).

The chains behind the UniProt entries cited, without tags or fusion partners. Where a name states a change or a piece, a line headed by the entry shows the natural chain unless it says otherwise.
UniProt Q14542: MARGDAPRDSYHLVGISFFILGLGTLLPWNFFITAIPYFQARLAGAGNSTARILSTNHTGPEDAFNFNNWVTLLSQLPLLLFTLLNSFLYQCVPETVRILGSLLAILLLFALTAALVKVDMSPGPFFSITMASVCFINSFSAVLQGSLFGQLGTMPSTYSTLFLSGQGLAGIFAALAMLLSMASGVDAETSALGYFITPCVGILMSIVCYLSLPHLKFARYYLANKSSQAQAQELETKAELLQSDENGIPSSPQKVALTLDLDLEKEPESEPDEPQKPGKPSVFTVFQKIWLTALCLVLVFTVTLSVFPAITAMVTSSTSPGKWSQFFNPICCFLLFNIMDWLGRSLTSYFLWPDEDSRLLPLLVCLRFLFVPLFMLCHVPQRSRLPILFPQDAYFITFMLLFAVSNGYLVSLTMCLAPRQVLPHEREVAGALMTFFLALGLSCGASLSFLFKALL

In this series the target is ei transporter (Homo sapiens, UniProt Q14542). To be noted: high concentrations; cited from earlier work.

As for `O=[N+]([O-])c1ccc(CSc2ncnc3c2ncn3C2OC(CO)C(O)C2O)cc1` [NBMPR, 6-[(4-nitrobenzyl)thio-9-β-D-ribofuranosylpurine]], the “concentration at which the ei transporter is also inhibited” value was above 1 µM.
